Antibody variant affinities, Ab-14 light chain, assay B

From the AlphaSeq antibody data of Li et al. 2023 (doi:10.1038/s41467-023-39022-2), copy in the FLAb collection.

Binding partner: SARS-CoV-2 spike HR2 peptide, sequence PDVDLGDISGINAS.

Parent scFv Ab-14: VH joined to VL by a (GGGGS)3 linker. Changes lie in the light chain CDRs alone.
VH: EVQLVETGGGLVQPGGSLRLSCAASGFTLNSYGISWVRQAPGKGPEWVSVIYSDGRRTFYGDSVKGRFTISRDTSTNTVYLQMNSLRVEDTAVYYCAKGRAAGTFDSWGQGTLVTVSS
VL: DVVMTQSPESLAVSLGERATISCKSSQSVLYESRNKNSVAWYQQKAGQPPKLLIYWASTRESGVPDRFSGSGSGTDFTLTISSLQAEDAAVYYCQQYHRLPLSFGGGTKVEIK

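Phage display of a naive human antibody library on the peptide gave the parent. Designed CDR sequences, proposed from the first random library and measured here. Several design methods are mixed in this list. AlphaSeq pools MATa yeast showing the antibodies with MATalpha yeast showing the peptide. Binding brings cells together so that they mate, and sequencing counts the barcode pairs among the diploids. Each replicate has its own calibration line, from reference interactions of the BCL2 family. Each pool was mated in six replicate cultures.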

Variants are written as CDR1, CDR2 and CDR3 of the light chain (limits as in the source). Parent: KSSQSVLYESRNKNSVA, WASTRES, QQYHRLPLS. This list holds designs with at most six substitutions. Each Kd is an estimate from the mating assay, the geometric mean of the replicates in which the pair was seen; lower is stronger. An entry "not detected" has no value in the source: the pair was not observed among the diploids in any replicate. This suggests poor binding but is not conclusive. Order: sorted from the lowest average up, undetected variants last. Empty control strains, which show no peptide, gave a signal in 4% of pairings with all light chain designs; the median was 430 nM and 95% of these signals were weaker than 38 nM. No background was subtracted. In the paper, a design with two or fewer of six values counts as a poor binder. The range of this assay differs from that of the first round, and the authors advise against merging the two.

CDR-L1,CDR-L2,CDR-L3,Kd (apparent),detected
KFEQSWLYESRNKNSVA,NASTRMS,QQYHRLPLS,250 pM,6/6
KLSQSVLYESRNKNSVA,DASTRES,QQYQRLPLS,270 pM,6/6
KSSQSWLYESRNKNSVA,GASDRES,QQYHRLPLS,310 pM,6/6
KLSQSVLYESRLKNSVA,DASTRES,QQYHRLPLS,420 pM,6/6
KLEQSQLYESRNKNAVA,NASQRES,QQYHRLPLS,460 pM,6/6
KVSQSVLYESRNKNSVA,NASTREE,QQYHRLPLS,460 pM,6/6
HDSPSVLYESRNKNSVA,NASTRES,QQYHRLPLS,540 pM,6/6
KSSGSDLYESRNKNSVA,EASTREQ,QQYHRLPLS,560 pM,6/6
KSYISWLYESRNKNSVA,EASTRES,QQYHRLPLS,570 pM,6/6
KLSQSYLYESRNKWSVA,NASTRES,QQYHRLPLS,570 pM,6/6
YLSQSVLYESRNKNSVA,NASTREM,QQYHRLPLM,630 pM,6/6
KSSQSWLYESRNKNSVA,GASTRVS,QQYHRLPLS,680 pM,6/6
KMEQSVLYESRNKNSVA,NASQRES,QQYHRLPLS,770 pM,6/6
KLQQSELYESRNKNSVA,EASERES,QQYHRLPLS,830 pM,6/6
KVSQEDLYESRNKNSVA,DASTRES,QQYHRLPLS,830 pM,6/6
KSAASELGESRNKNSVA,SASTRES,QQYHRLPLS,860 pM,6/6
KLSQSNLYESRNSNSVA,NASTRES,QQYHRLPLS,860 pM,6/6
KSSQSWLYESGNKNSVA,HASTRED,QQYHRLPLS,890 pM,6/6
KLRQSTLYESRNKNSVA,NASTRMS,QQYHRLPLS,950 pM,6/6
KLSQSVDYESRNKNSVA,EASTREQ,QQYHRLPLS,1.0 nM,6/6
KLDQMCQYESRNKNSVA,NASTRES,QQYHRLPLS,1.1 nM,6/6
KSSISVLYESMNKNSVA,EASTRMS,QQYHRLPLS,1.1 nM,6/6
KLSCSCLYESANKNSVA,NASTRLS,QQYHRLPLS,1.1 nM,6/6
KVSQSWLYESRNKNSVA,EASQRES,QQYHRLPLS,1.1 nM,6/6
KVSQSVLYESRMKNSVA,NASTRCS,QQYHRLPLS,1.2 nM,6/6
KWSQSVKMESRNKNSVA,DASTRES,QQYHRLPLS,1.2 nM,6/6
KVSQSKLGESRNKNSVA,NASTREK,QQYHRLPLS,1.2 nM,6/6
KSTQPSLYESTNKNSVA,AASTRES,QQYHRLPLS,1.3 nM,6/6
KLMQSELYESRNKNSVA,HASLRED,QQYHRLPLS,1.3 nM,6/6
KLQQSVPYESRNKNSVA,DASTRCS,QQYHRLPLS,1.3 nM,6/6
KLWQSVLYESRNKNSVA,GASTRES,QQYHRLPLS,1.4 nM,6/6
KLSQSQGYESRNKNSVA,NASTRES,QQYHRLPLS,1.5 nM,6/6
KSSMSYLLEKRNKNSVA,EASTRES,QQYHRLPLS,1.5 nM,6/6
KLSQSVLYESRNKNSVA,NASTRES,QDYHRLPLY,1.6 nM,6/6
KISQSSLYEGRNKNSVA,HASTRES,QQYHKLPLS,1.9 nM,6/6
KLSQSWLYESRNKNNVA,HASTRES,QQYHRLPLS,2.1 nM,6/6
KSYISHLYESRNKNSVA,EASTRES,QQYHRLPLS,2.3 nM,6/6
HSSPSVPYESRNKNSVA,DASTRES,QQYHRLPLS,2.5 nM,6/6
KLQQSQEYESRNKNSVA,HASTRED,QQYHRLPLS,2.7 nM,6/6
RSSQSVLYEDANKNSVA,KASTRES,QQYHRLPLS,5.3 nM,6/6
KLEQLVLYESRNKNSVA,GASTRES,QQYHRLPLS,11 nM,6/6
KSSQEVLYESRNKNSVA,YASTRES,QQYHRLPLS,12 nM,3/6
KLSFSVLYESRNKNSVA,WASTRES,KQYHELPLS,13 nM,1/6
KSSQSVWYESRNKNSVA,PASTRES,QQYHRLPLS,17 nM,1/6
KLSPSGLYESRNKNSVA,WASTRVS,QQYHRLPLS,19 nM,6/6
KSSESVLYLSRNKNNVA,WASIRES,QAYHRLPLS,22 nM,6/6
KISQSVLYDSRFKNSVA,WASTRES,QQYHRLPLS,43 nM,6/6
KYSPSVWYESRNKNSVA,WASTRES,QQYHRLPLS,69 nM,5/6
QSSQSTLYESRNKNSVA,WASTRES,QQYHRLPLS,96 nM,4/6
KSPQSVYYESRNKNSVA,HASTRES,QQYHRLPLS,150 nM,2/6
KSSQSVLYERRNNNSVA,WASTRES,QQYHRLPLS,240 nM,3/6
KSSQSVLYEWRNKNSVA,WASTRES,QQYHRLPLS,250 nM,3/6
KSDQSVLYESRNKNSVA,EASTRES,QQYHRWPLS,690 nM,1/6
KSSQSVLYESSNKNSVA,WASTRED,QQYHRLPLS,2.0 µM,1/6
KHSQSVQYESRNHNSVA,WASTRES,QQDHRLPLS,not detected,0/6

Top 5 of the variants detected in all replicates, tightest first:

| CDR-L1 | CDR-L2 | CDR-L3 | Kd (apparent) | detected |
|---|---|---|---|---|
| KFEQSWLYESRNKNSVA | NASTRMS | QQYHRLPLS | 250 pM | 6/6 |
| KLSQSVLYESRNKNSVA | DASTRES | QQYQRLPLS | 270 pM | 6/6 |
| KSSQSWLYESRNKNSVA | GASDRES | QQYHRLPLS | 310 pM | 6/6 |
| KLSQSVLYESRLKNSVA | DASTRES | QQYHRLPLS | 420 pM | 6/6 |
| KLEQSQLYESRNKNAVA | NASQRES | QQYHRLPLS | 460 pM | 6/6 |